Assays:
[1] = target: T1, recombinant human C1q protein (Fitzgerald) (human); assay: ELISA, test article immobilized, C1q added; text: devoid of C1q binding ability
T1 construct: also called human recombinant complement protein, C1q

The chains behind the UniProt entries cited, without tags or fusion partners. Residues count along the entry.
UniProt P55899, 24-297 limits assumed, chain 1 of 2: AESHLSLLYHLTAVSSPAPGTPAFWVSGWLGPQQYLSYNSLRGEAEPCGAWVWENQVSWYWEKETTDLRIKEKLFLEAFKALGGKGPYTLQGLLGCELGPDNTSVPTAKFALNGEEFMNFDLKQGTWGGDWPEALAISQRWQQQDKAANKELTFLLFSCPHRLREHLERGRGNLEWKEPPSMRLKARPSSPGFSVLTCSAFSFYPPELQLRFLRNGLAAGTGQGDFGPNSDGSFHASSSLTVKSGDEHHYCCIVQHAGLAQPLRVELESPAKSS

recombinant human FcRn = target: T2, recombinant human FcRn (human, UniProt P55899, in part; P61769, in part); assay: ELISA; recombinant human FcRn coated, serially diluted test article, anti-human (H+L)-HRP, 4PL fit; estimate, no saturating signal
T2 construct: a beta-2-microglobulin chain is not mentioned; also called human recombinant FcRn
Experimental: Graph is a result of one experiment. Experiment was performed in duplicate. Error bars represent standard deviation of the mean values.
Signal was developed using TMB substrate then quenched prior to reading absorbance at 450-650 nm on a SpectraMax plate reader.

B1: human FLT3-ligand human IgG4 (S228P/L235E) fusion protein (SEQ ID NO:3) (Fc fusion)
chain: TQDCSFQHSPISSDFAVKIRELSDYLLQDYPVTVASNLQDEELCGGLWRLVLAQRWMERLKTVAGSKMQGLLERVNTEIHFVTKCAFQPPPSCLRFVQTNISRLLQETSEQLVALKPWITRQNFSRCLELQCQPDSSTLPPPWSPRPLEATAPTAPQESKYGPPCPPCPAPEFEGGPSVFLFPPKPKDTLMISRTPEVTCVVVDVSQEDPEVQFNWYVDGVEVHNAKTKPREEQFNSTYRVVSVLTVLHQDWLNGKEYKCKVSNKGLPSSIEKTISKAKGQPREPQVYTLPPSQEEMTKNQVSLTCLVKGFYPSDIAVEWESNGQPENNYKTTPPVLDSDGSFFLYSRLTVDKSRWQEGNVFSCSVMHEALHNHYTQKSLSLSLGK
notes: also called FLT3L ECD - hG4 S228P/L235E
B1 was tested, and the binding result [1] was “no binding (tested: 94 nM (highest of the titration))” and the EC50 (recombinant human FcRn) was ~183 nM.

Source: US20220389394A1 (Gilead, published 2022)
